Laboratory results taken from patent EP0415470A2, “Aminopeptidase” (CAMPINA MELKUNIE B.V., priority 1989, dated 1991).

Sequences of proteins named here, by UniProt entry; tags and fusion partners are left off. A change or cut given only in a name is not applied to a line headed by its entry.
UniProt P0C2T8: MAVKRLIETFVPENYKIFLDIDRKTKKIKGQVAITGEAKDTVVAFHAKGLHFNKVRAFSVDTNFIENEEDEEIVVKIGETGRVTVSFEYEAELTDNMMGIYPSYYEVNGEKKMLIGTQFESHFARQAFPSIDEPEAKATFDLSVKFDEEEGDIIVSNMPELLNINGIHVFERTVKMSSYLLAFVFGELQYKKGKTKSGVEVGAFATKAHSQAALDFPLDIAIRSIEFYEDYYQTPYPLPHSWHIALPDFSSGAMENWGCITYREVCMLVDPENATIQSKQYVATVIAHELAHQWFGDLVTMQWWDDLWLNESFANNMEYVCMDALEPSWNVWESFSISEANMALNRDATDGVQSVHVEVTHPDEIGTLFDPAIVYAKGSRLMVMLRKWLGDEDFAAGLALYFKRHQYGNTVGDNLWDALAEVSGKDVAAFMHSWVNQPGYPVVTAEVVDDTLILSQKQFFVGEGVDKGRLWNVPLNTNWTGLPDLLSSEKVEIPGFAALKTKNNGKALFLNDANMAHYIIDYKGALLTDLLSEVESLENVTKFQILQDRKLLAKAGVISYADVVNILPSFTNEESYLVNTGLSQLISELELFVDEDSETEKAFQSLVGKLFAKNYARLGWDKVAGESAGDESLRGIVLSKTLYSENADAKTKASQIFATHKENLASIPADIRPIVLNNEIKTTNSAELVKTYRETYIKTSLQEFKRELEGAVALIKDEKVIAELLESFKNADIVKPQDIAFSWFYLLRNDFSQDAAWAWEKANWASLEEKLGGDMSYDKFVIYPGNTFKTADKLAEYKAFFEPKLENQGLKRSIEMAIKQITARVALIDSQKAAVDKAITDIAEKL

Target: aminopeptidase of L. lactis subsp. cremoris Wg2 (Lactococcus lactis subsp. cremoris, UniProt P0C2T8)
Experiment: Effect of divalent cations and chemical substances on the enzyme activity
Assay type: biochemical
Conditions: for inhibition of the activity: 25 µM; for activity of the enzyme treated with 1,10-phenanthroline restored to: addition of 50 µM salt, enzyme treated with 200 µM 1,10-phenanthroline; for inhibition of the enzyme activity: 100 µM

| Compound | inhibition of the activity | activity of the enzyme treated with 1,10-phenanthroline restored to | restoration of the activity of the enzyme treated with 1,10-phenanthroline (in words) | inhibition of the enzyme activity | other results |
| --- | --- | --- | --- | --- | --- |
| O=[As]c1ccccc1 (stereo not drawn) |  |  |  |  | effect on the hydrolysis activity of the enzyme (in words) (2.5 mM): no effect; effect of chemical reagents on the aminopeptidase activity (in words) (reagents to sulphydryl, thiol and disulphide groups, concentration not given): insensitive |
| Cd(NO₃)₂ | 35% |  |  |  |  |
| CoCl₂ |  | 80% |  |  |  |
| CuCl₂ | 8% |  | could not restore the enzyme activity |  |  |
| FeCl₂ |  |  | could not restore the enzyme activity | 60% |  |
| ZnCl₂ |  | 88% | most effective stimulator | 32% | effect of zinc ions at higher concentrations (in words) (concentrations of more than 100 µM, enzyme treated with 1,10-phenanthroline): inhibition |
